Only a part is listed here, and it is no random draw. Activity calls are given as the source filed them.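 How the source made its calls: active means inhibition above the mean inhibition across all screened compounds plus 3 SD (cut at about 44% in these data); inactive means the rest.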
Assay: blockers of STAT3 transcriptional signaling – U3A cells, luciferase, luminescence, MLSCN library, primary screen (AID 862);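 further: 0% = DMSO only wells and 100% = 100 µM nifuroxazide control wells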
Conditions: IL-6 STAT3-luciferase reporter, at 5.5 µM, active compounds read high, host cell line lacks STAT1

Row | Compound | inhibition
1 | CCOC(=O)NC(Sc1ccccc1)C(Cl)(Cl)Cl (centres undefined) | inactive: 7.3%
2 | c1ccc(-c2nn[nH]n2)c(-c2nn[nH]n2)c1 | inactive: 5.7%
3 | CCNC(=S)/N=C(\N)N[N+](=O)[O-] | inactive: -1.4%
4 | O=C(NC1CCS(=O)(=O)C1)NP(=S)(Oc1ccccc1)Oc1ccccc1 (centres undefined) | inactive: 8.3%
5 | O=c1c2cc([N+](=O)[O-])ccc2[nH]c2c([N+](=O)[O-])cc([N+](=O)[O-])cc12 | active: 59.5%
6 | CCC(=O)N1C2C3N(C(=O)CC)C1C1N(C(=O)CC)C(C(N1C(=O)CC)N3C(=O)CC)N2C(=O)CC | inactive: 6.9%
7 | CC(=O)NC(SC(=S)N(CC(C)C)CC(C)C)C(Cl)(Cl)Cl (centres undefined) | inactive: -7.3%
8 | Cc1ccc(OP(=O)(Nc2ccccn2)Oc2ccc(C)cc2)cc1 | inactive: -2.1%
9 | COC(=O)c1cc2c(s1)N=C(c1ccccc1)N(C)P2(=O)N1CCOCC1 (centres undefined) | inactive: -5.7%
10 | CC(C)(C)C(=O)NC(Sc1ccccc1)C(Cl)(Cl)Cl (centres undefined) | inactive: 2.6%
11 | CCOc1ccc(C2=NCC(CBr)S2)cc1 (centres undefined) | inactive: 8.7%
12 | O=P1(Nc2nc3ccc(Cl)cc3s2)COc2ccccc2O1 (centres undefined) | inactive: 8.1%
13 | CC(=O)Nc1ccc(Oc2c([N+](=O)[O-])cc([N+](=O)[O-])cc2[N+](=O)[O-])cc1 | inactive: 10.6%
14 | c1nnnn1CCn1cnnn1 | inactive: 9.3%
15 | CC(C)C(=O)NC(Sc1ccccc1)C(Cl)(Cl)Cl (centres undefined) | inactive: -5.3%
16 | O=P(Nc1nccs1)(c1ccccc1)c1ccccc1 | inactive: -1.9%
17 | O=P(Nc1ccccn1)(c1ccc(Br)cc1)c1ccc(Br)cc1 | inactive: 0.2%
18 | O=C(OC1CN2CCC1CC2)c1cccc(Cl)c1 (centres undefined) | inactive: 5.8%
19 | C(Cc1nn[nH]n1)Cc1nn[nH]n1 | inactive: 18.7%
20 | CC(=O)NC(SC(=S)N(C)C)C(Cl)(Cl)Cl (centres undefined) | inactive: 1.4%
21 | O=[N+]([O-])c1ncn(CCn2ncnc2[N+](=O)[O-])n1 | inactive: 10.2%
22 | CCc1nc2c(n1)c1c(non1O)c1c2no[n+]1[O-] | inactive: 17.6%
23 | O=[N+]([O-])c1cc([N+](=O)[O-])c(CCNc2ccccc2)c([N+](=O)[O-])c1 | inactive: 37.7%
24 | Cc1ccc(NP(=O)(Oc2ccccc2)Oc2ccccc2)nc1 | inactive: -3.9%
25 | O=[N+]([O-])c1cccc2n[nH]nc12 | inactive: -5.4%
26 | CC(=O)N1C2C3N(C(C)=O)C1C1N(C(C)=O)C(C(N1C(C)=O)N3C(C)=O)N2C(C)=O | inactive: 2.8%
27 | COc1ccc(C2=NCC(CBr)S2)cc1 (centres undefined) | inactive: -3.8%

Row | Compound | inhibition
28 | CC1CCN(C(=O)Oc2c(Cl)cc(Cl)c3cccnc23)CC1 | inactive: 8.4%
29 | CN(C)C(=O)OCCc1n(C)cc[n+]1C | inactive: -3.9%
30 | CC(C)=N/N=C(\N)N[N+](=O)[O-] | inactive: 2.3%
31 | CCN(/C(=N/P(=O)(N1CCOCC1)N1CCOCC1)N1CCOCC1)c1ccc(OC)cc1 | inactive: 13.2%
32 | Clc1ccc(Cl)c(NC2=NCC(CBr)S2)c1 (centres undefined) | inactive: 11.8%
33 | CN1CCCC(OC(=O)C(c2ccccc2)c2ccccc2)C1 (centres undefined) | inactive: -8.5%
34 | COc1ccccc1OP(=O)(Nc1ccc(C)cn1)Oc1ccccc1OC | inactive: -8.4%
35 | Cc1ccc(N/C(=N/P(=O)(N2CCOCC2)N2CCOCC2)N2CCOCC2)cc1 | inactive: -6.1%
36 | NC(=O)c1cc([N+](=O)[O-])cc([N+](=O)[O-])c1N | inactive: 4.9%
37 | Cc1c2non([O-])c-2c(C)[n+](=O)[n+]1[O-] | inactive: 6%
38 | O=C(NC(Sc1ccncn1)C(Cl)(Cl)Cl)c1ccccc1 (centres undefined) | inactive: -6.5%
39 | Oc1ccccc1CNc1ccccn1 | inactive: -4.1%
40 | CC(C)CC(=O)NC(Sc1ccc(Cl)cc1)C(Cl)(Cl)Cl (centres undefined) | inactive: -7.4%
41 | CCOP(=O)(Nc1ccccc1)OCC | inactive: 5.8%
42 | Cc1cc(SC(NC(=O)c2ccc(F)cc2)C(Cl)(Cl)Cl)ncn1 (centres undefined) | inactive: -4.5%
43 | CCN(N=Nc1nonc1N)c1nonc1N | inactive: -1.9%
44 | Cc1ccc2nc3c(c(C)c2c1)CC(C(Cl)Cl)S3 (centres undefined) | inactive: 16.7%
45 | O=[N+]([O-])c1cc([N+](=O)[O-])c(-c2ccn[nH]2)s1 | inactive: 3%
46 | CCN(CC)C(=S)SC(NC=O)C(Cl)(Cl)Cl (centres undefined) | inactive: 14.7%
47 | CC(C)NC(=O)NP(=O)(Oc1ccccc1)Oc1ccccc1 | inactive: -3%
48 | ClCCSc1nnc(-c2cccnc2)o1 | inactive: -3.4%
49 | COc1ccc2nc(NP(=O)(c3ccccc3)c3ccccc3)sc2c1 | inactive: -3.6%
50 | Cc1c2c(nc3ccccc13)SC(C(Cl)Cl)C2 (centres undefined) | inactive: 28%
51 | Cc1cc(=O)[nH]c(N[N+](=O)[O-])n1 | inactive: 0%
52 | O=C(OC1CN2CCC1CC2)C12CC3CC(CC(C3)C1)C2 (centres undefined) | inactive: -19.2%
53 | COc1ccc(N/C(=N/P(=O)(N2CCOCC2)N2CCOCC2)N2CCOCC2)cc1 | inactive: 8.1%
54 | O=C(COc1ccccc1)OC1CN2CCC1CC2 (centres undefined) | inactive: 4.9%

Row | Compound | inhibition
55 | COP1(=S)c2c(C)nn(CCC#N)c2N=C(c2ccc(F)cc2)N1C (centres undefined) | inactive: 0.7%
56 | CCC(C)N(CC(C)C)C(=S)SC(NC(C)=O)C(Cl)(Cl)Cl (centres undefined) | inactive: 4.7%
57 | Cc1cc(SC(NC(=O)c2ccccc2)C(Cl)(Cl)Cl)nc(C(C)C)n1 (centres undefined) | inactive: 4.4%
58 | O=P(Nc1ccccn1)(c1cccc2ccccc12)c1cccc2ccccc12 | inactive: -2.4%
59 | Cc1cc(SC(NC=O)C(Cl)(Cl)Cl)ncn1 (centres undefined) | inactive: -2.1%
60 | CN(C)C1(CNC(=O)c2ccc(S(C)(=O)=O)cc2)CCCCC1 | inactive: 0.8%
61 | CC1CCC(C(C)C)C(OP(=O)(Nc2ccccn2)c2ccccc2)C1 (centres undefined) | inactive: -3.5%
62 | Cc1nn(-c2ccccc2)c2c1P(=O)(N1CCOCC1)N(C)C(c1ccccc1)=N2 (centres undefined) | inactive: 11.7%
63 | O=P1(Nc2ccc(Br)cn2)COc2ccccc2OC1 | inactive: 12.9%
64 | Cc1ccc(OCC(=O)OC2CN3CCC2CC3)cc1 (centres undefined) | inactive: -7.7%
65 | O=P1(Nc2ncccn2)COc2ccccc2OC1 | inactive: 1.4%
66 | Clc1n[nH]nc1-c1nn[nH][15n]1 | inactive: 4.6%
67 | O=P1(Nc2ccccn2)COc2ccccc2OC1 | inactive: -3.3%
68 | CC(C)/C=N\N=C(\N)N[N+](=O)[O-] | inactive: 6.8%
69 | CC1(CBr)Cn2c(nc3ccccc3c2=O)S1 (centres undefined) | inactive: 10.5%
70 | Cc1cccc(OCC(=O)OC2CN3CCC2CC3)c1 (centres undefined) | inactive: 8%
71 | COc1cc(C(=O)NCC2(N3CCOCC3)CCCCC2)cc(Cl)c1OC(C)C | inactive: -17.2%
72 | CCOP(=O)(Nc1cccc2ccccc12)OCC | inactive: -3.6%
73 | COc1cc(C2NCCC3(OCCO3)C2(C)C)cc(OC)c1OC (centres undefined) | inactive: 9.7%
74 | Cc1ccc(NCCc2c([N+](=O)[O-])cc([N+](=O)[O-])cc2[N+](=O)[O-])cc1 | inactive: 16.1%
75 | O=P(Nc1nccs1)(c1ccccc1)c1nc2ccccc2s1 (centres undefined) | inactive: -9.6%
76 | O=P(Nc1nccs1)(Oc1ccccc1)Oc1ccccc1 | inactive: 24.2%
77 | CCOP1(=S)c2c(C)nn(CCC#N)c2N=C(c2ccccc2F)N1C (centres undefined) | inactive: -4.1%
78 | CCOP1(=S)c2c(C)nn(CCC#N)c2N=C(c2ccc(F)cc2)N1C (centres undefined) | inactive: -1.3%
79 | O=[N+]([O-])c1ccc2c(c1)nnn2O | inactive: 0.6%

From PubChem BioAssay AID862 (The Scripps Research Institute Molecular Screening Center, 2007)
